Target: C-X-C chemokine receptor type 4 (Homo sapiens, UniProt P61073)
Experiment: Antagonist activity at CXCR4 (unknown origin)
Assay type: functional

By UniProt entry, the sequences of proteins in these tests, tags left out.
UniProt P61073, whole entry: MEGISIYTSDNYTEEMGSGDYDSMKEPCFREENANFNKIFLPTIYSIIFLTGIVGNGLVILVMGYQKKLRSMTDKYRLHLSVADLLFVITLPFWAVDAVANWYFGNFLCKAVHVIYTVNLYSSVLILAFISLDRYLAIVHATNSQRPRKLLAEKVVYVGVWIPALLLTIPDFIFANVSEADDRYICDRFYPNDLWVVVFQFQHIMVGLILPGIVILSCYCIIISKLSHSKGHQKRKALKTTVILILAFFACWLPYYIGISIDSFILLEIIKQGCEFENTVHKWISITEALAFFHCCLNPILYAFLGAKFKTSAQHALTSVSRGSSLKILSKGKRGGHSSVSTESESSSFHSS

N=C(N)NCCC[C@@H]1NC(=O)[C@H](CCCNC(=N)N)NC(=O)[C@@H](Cc2ccc(O)cc2)NC(=O)CNC(=O)[C@H](Cc2ccc3ccccc3c2)NC1=O
EC50: 68 nM

Source: ChEMBL document CHEMBL5576093, “Design, synthesis and evaluation of bioactivity of peptidomimetics based on chloroalkene dipeptide isosteres” (Bioorg Med Chem, 2024)
